miR-21 reporter – raises the signal of a miR-21 reporter | HeLa miR-21 FLuc reporter, luciferase, 48 h | Potency, µM (doses to about 38.3 µM), for the others: at the highest dose reporter change, positive = more light | 340,000 tested, under 10 active | AID 2288; active = well fitted rising curve with a large enough effect; inconclusive = small, poorly fitted or top-dose-only effect; inactive = no such curve, though single readings can be large or run the other way;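 also: % of control where 0% means no effect; miR-21 action dims this reporter so a rising signal means less miR-21 action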
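HeLa cells stably expressing CMV-driven firefly luciferase with a downstream miR-21 binding sequence, endogenously expressing miR-21, were treated with titrations (up to about 40uM final) for 48 hours at 37 degree Celsius. Luciferase luminescence was read after lysis.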
JMJD2E inh – JMJD2E (human) inhibition. JMJD2E catalytic domain, FDH-coupled NADH fluorescence (FDH is formaldehyde dehydrogenase). Potency, µM (series often up to 57.1 µM), inactives show at the top dose activity change, negative = inhibition, most hits filed as inhibitors. 230,000 compounds, 1.6% hits. AID 2147; active = well fitted inhibition curve with a large enough effect, not every such curve was filed as active; inconclusive = small, poorly fitted or top-dose-only effect, or another doubt; inactive = no such curve, though single readings can be large or run the other way;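 note: potency is the fitted concentration of half-maximal effect; 0% = wells with enzyme and -100% = buffer wells without enzyme; nearly all actives have a fitted effect of over 50% in size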
Sfp inh – qHTS Assay for Inhibitors of Bacillus subtilis Sfp phosphopantetheinyl transferase (PPTase). 4'-phosphopantetheinyl transferase ffp (Bacillus subtilis), Q9F4F7. Biochemical Sfp PPTase activity, qHTS. Potency, µM, inactives show max response, negative = inhibition, usual class: inhibitors. hit rate 3.5% among 310,000; active means well fitted inhibition curve with a large enough effect; inconclusive means small, poorly fitted or top-dose-only effect, or another doubt; inactive means no such curve, though single readings can be large or run the other way;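 further: the enzyme is Sfp with the accession as filed and its product quenches rhodamine fluorescence; potency means the concentration at half of the fitted maximal effect; 0% = enzyme reaction without inhibitor and -100% = no enzyme wells; top concentration of the series not given in the record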
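Reaction rates are the 30-min fluorescence difference (ex 525, em 598 nm) in wells containing 15 nM Sfp, 5 uM rhodamine-CoA and 12.5 uM BHQ-2-YbbR at pH 7.6 with 10 mM MgCl2.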
LMNA splice mod – LMNA splicing modulation; HeLa LMNA splicing GFP/RFP minigene ratio, 48 h; Potency, µM (titrated, usually from 46.1 µM), inactives show at the top dose ratio change, negative = inhibition, usual class: inhibitors; 200,000 compounds, 0.01% hits; active = well fitted inhibition curve with a large enough effect in the signal ratio, with a control signal flat, not every such curve was filed as active; inconclusive = small, poorly fitted or top-dose-only effect, or effect the other way, or a change in a side signal; the % refers to the signal ratio; note: potency is the fitted concentration of half-maximal effect; % is set by controls: 0 for no effect and ±100 for the full control effect
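S3 HeLa stable clones carrying a lamin A-EGFP splicing minigene plus DsRed2 were seeded at 600 cells/well in Opti-MEM with 2% FBS, pin-dosed and incubated 48 h at 37°C. Acumen cytometry (488 nm) gave the GFP/RFP total-intensity ratio.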
G9a inh – blocks human histone lysine methyltransferase G9a; Q96KQ7; G9a H3K9 monomethylation, AlphaScreen, 2 h; Potency, µM (series often up to 102 µM), for the others: at the top dose activity, negative = inhibition, most hits filed as inhibitors; 350,000 compounds, 8.8% hits; note: potency is the fitted concentration of half-maximal effect; % is set by controls: 0 for no effect and ±100 for the full control effect; nearly all actives have a fitted effect of over 75% in size
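Chemiluminescent proximity detection of H3K9 monomethylation, read after 10 min bead incubation in the dark. Reaction: 20 nM G9a, 500 nM biotin-H3K9 peptide, 20 uM SAM cofactor, 2 h, room temperature, following 15 min enzyme-compound preincubation.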
ALDH1A1 block – ALDH1A1 (human) enzyme inhibition. P00352. Purified ALDH1A1, NADH fluorescence, propionaldehyde substrate. Potency, µM (highest dose often 75.3 µM), for the others: top-dose activity, negative = inhibition, usual class: inhibitors. 220,000 compounds, 7.3% hits. AID 1030; active = well fitted inhibition curve with a large enough effect, not every such curve was filed as active; inconclusive = small, poorly fitted or top-dose-only effect, or another doubt; inactive = no such curve, though single readings can be large or run the other way;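 note: potency is the fitted concentration of half-maximal effect; plate controls were no enzyme wells and a reference inhibitor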
Starred values were filed as active, the others as inactive; u = inconclusive; x = no result; [ ] = dose if it differs, or a comment. An excerpt weighted towards active compounds, which were near 13% of everything screened. Unless noted, calls come from the whole dose curve; as a rule, active = well fitted curve in the direction sought with a large enough effect; inconclusive = small, poorly fitted or top-dose-only effect, or another doubt; inactive = no such curve, though single readings can be large; an effect the other way counts as inactive or inconclusive.

Compound | LMNA splice mod | miR-21 reporter | ALDH1A1 block | G9a inh | Sfp inh | JMJD2E inh
CCC(Sc1nc2ccncc2[nH]1)C(=O)Nc1cc(Cl)ccc1C (stereo not drawn) | x | 12% | x | u | 0% | x
O=C(O)c1ccccc1C(=O)Nc1ccc(Br)c2cccnc12 | x | -11% | -3% | -37%[59 µM] | 40µM* | -3%
CCCNC(=O)C1CCC(Cn2c(=O)c3sccc3n(CC(=O)N3CCCC(C)C3)c2=O)CC1 (stereo not drawn) | 8%[46 µM] | 0% | x | 10%[59 µM] | x | x
COC(=O)c1c(N)n(-c2ccc(N3CCOCC3)cc2)c2nc3ccccc3nc12 | -16% | -17% | 18µM* | 10µM* | -12% | 18µM*
COc1ccccc1CNC(=O)c1c(N)n(CCCN2CCOCC2)c2nc3ccccc3nc12 | u | 17% | u | 6%[59 µM] | 56µM* | u
Nc1c(C(=O)NCc2ccco2)c2nc3ccccc3nc2n1CCc1ccc(F)cc1 | u | 8% | u | -1%[59 µM] | 25µM* | -5%
Nc1c(C(=O)NCCN2CCOCC2)c2nc3ccccc3nc2n1CCc1ccccc1 | u | 23% | u | 30% | -15% | u
COc1ccc(-n2c(N)c(C(=O)NCc3ccco3)c3nc4ccccc4nc32)cc1 | u | 8% | u | 1%[59 µM] | 25µM* | u
O=C(NCc1ccco1)C1CCN(c2nc3ccccc3n2Cc2ccc(F)cc2)CC1 | -8% | 12% | 5% | 79µM* | -8% | 7%
COc1nc(OC)nc(N2CCC(C(=O)NCc3ccco3)CC2)n1 | 13% | -3% | 12% | 3%[12.7 µM] | 13% | 5%
CC1CCc2sc(-c3n[nH]c(=S)o3)cc2C1 (stereo not drawn) | -6%[46 µM] | -46% | u | 13µM* | -24% | u
CC1CCc2sc(C(=O)NC3CCCCC3)cc2C1 (stereo not drawn) | x | x | x | 30%[59 µM] | x | x
CC(=O)c1ccc(NC(=O)CCc2c(C)nn(-c3ccc4nncn4n3)c2C)cc1 | 1%[46 µM] | -1% | x | 63%[59 µM] | x | x
CNc1nc(C23CC4CC(CC(C4)C2)C3)cs1 | -5%[46 µM] | 8% | u | 32µM* | -25% | -4%
Clc1ccc(-c2nnc(SCc3nc4ccccc4[nH]3)o2)c(Cl)c1 | u | -24% | -3% | 8.9µM* | -17% | u
CCOC(=O)c1c(NC(=O)COc2ccc(F)cc2)sc2c1CCC(C)C2 (stereo not drawn) | x | -2% | x | u | x | x
Cc1ccc(NC(=O)Cn2c(-c3ccc4c(c3)OCO4)cn(-c3ccccc3)c2=O)cc1 | x | -23% | x | u | x | x
CCOc1ccccc1NC(=O)Cn1c(=O)sc2ccccc21 | u | -5% | 9% | 8% | 14% | -8%
O=C(Cn1c(=O)sc2ccccc21)Nc1ccc(O)cc1 | x | -10% | 2% | -5%[59 µM] | 79µM* | 0%
O=C(Nc1ccccc1N1CCCCC1)c1ccc(Cl)c([N+](=O)[O-])c1 | x | -2% | -3% | 35µM* | -5% | 3%
O=C(Nc1ccccc1C(=O)N1CCCC1)c1ccc(Cl)c([N+](=O)[O-])c1 | x | 5% | -15% | x | 2% | 0%
CN1CCN(c2ccc(C(=O)c3ccc(Br)cc3)cc2[N+](=O)[O-])CC1 | -25%[46 µM] | 5% | 15% | 45µM* | 6% | -1%
CN1CCN(c2ccccc2NC(=O)c2ccc(N3CCCC3)c([N+](=O)[O-])c2)CC1 | -11%[46 µM] | -22% | u | 50µM* | 10% | 8%
CC1CCN(c2ccccc2NC(=O)c2ccc(N3CCOCC3)c([N+](=O)[O-])c2)CC1 | -7% | -2% | 10% | 8%[59 µM] | 6% | 4%
COc1cccc2c1cc1c(=O)n(CC(=O)NCc3ccco3)nc(C)n12 | x | -1% | x | -26%[59 µM] | x | x
CCN1CCC(N(Cc2cccc(OC)c2)C(=O)Nc2ccc(C)cc2Cl)CC1 | -11%[46 µM] | 1% | x | -29%[59 µM] | x | x
Cc1ccc(-c2noc(C3CC(=O)N(c4ccc5c(c4)OCCO5)C3)n2)cc1 (stereo not drawn) | -23%[46 µM] | -1% | x | 4%[59 µM] | x | x
CC(C)(CCC(=S)N1CCOCC1)C1CCCCC1 | x | -23% | x | 8.9µM* | -89% | x
S=C(NC1CCCCC1)N1CCOCC1 | x | 3% | x | 2% | 7% | 6%
N#CC1=C(c2ccccc2)/C(=C/c2ccccc2)OC1=O | u | 7% | u | 13µM* | u | u

Ordered by formula weight (smallest number first): part of the list above
Compound | LMNA splice mod | miR-21 reporter | ALDH1A1 block | G9a inh | Sfp inh | JMJD2E inh
N#CC1=C(c2ccccc2)/C(=C/c2ccccc2)OC1=O | u | 7% | u | 13µM* | u | u
COc1cccc2c1cc1c(=O)n(CC(=O)NCc3ccco3)nc(C)n12 | x | -1% | x | -26%[59 µM] | x | x
CN1CCN(c2ccccc2NC(=O)c2ccc(N3CCCC3)c([N+](=O)[O-])c2)CC1 | -11%[46 µM] | -22% | u | 50µM* | 10% | 8%
COc1ccccc1CNC(=O)c1c(N)n(CCCN2CCOCC2)c2nc3ccccc3nc12 | u | 17% | u | 6%[59 µM] | 56µM* | u

Additional results follow:
Compound | LMNA splice mod | miR-21 reporter | ALDH1A1 block | G9a inh | Sfp inh | JMJD2E inh
Cc1ccc(NC(=O)CN2C(=O)c3cccnc3Sc3ccccc32)cc1C | 0%[46 µM] | -49% | x | 15%[59 µM] | x | x
O=[N+]([O-])/C(C(Cl)=C(Cl)Cl)=C(/NC1CC1)Sc1ccccc1 | x | 1% | 18µM* | 40µM* | -14% | -13%
CCNc1ncc2nc(-c3ccc(OC)cc3)c(=O)n(Cc3cccs3)c2n1 | u | x | u | 2%[0.501 µM] | -8% | x
c1ccc2c(c1)CC(N1CCN(c3cccc4c3OCCO4)CC1)C2 | u | x | 22µM* | 70%[12.7 µM] | -8% | 6%
COc1ccc(/C=C2/C(=O)N(c3cccc(F)c3)N=C2C)c(OC)c1 | x | -3% | x | 19%[0.501 µM] | 2% | x
COc1ccc(/C=C2/C(=O)N(c3ccccc3)N=C2C)cc1Br | x | -1% | x | 35µM* | 50µM* | x
CC1=NN(c2cccc(F)c2)C(=O)/C1=C/c1ccc(N(C)C)cc1 | x | -1% | x | -16% | 14% | x
CC1=NN(c2ccccc2)C(=O)/C1=C/c1ccc(Cl)cc1 | x | 1% | x | 40µM* | -23% | x
CC1=NN(c2ccccc2)C(=O)/C1=C/c1c(O)n(-c2ccc(F)cc2)[nH]c1=O | -13% | -35% | 20µM* | 11µM* | -15% | -3%
CC1=NN(c2ccccc2)C(=O)/C1=C\c1ccc(Br)s1 | u | -5% | 7.9µM* | 8.9µM* | -5% | 3.2µM*
CC(C)c1ccc(NC(=O)CN2C(=O)COc3ccc(S(=O)(=O)N4CCCCCC4)cc32)cc1 | x | 13% | x | 24%[59 µM] | x | x
Cc1cn2c(=O)cc(COC(=O)c3ccc(NC(=O)c4ccc(F)cc4)cc3)nc2s1 | -16%[46 µM] | -6% | x | -1%[59 µM] | x | x
CC1=NN(c2ccccc2)C(=O)/C1=C/c1ccc[nH]1 | 0% | -60% | -3% | 22µM* | 7% | 1%
CC1=NN(c2ccccc2)C(=O)/C1=C\c1cc(C)n(-c2cccnc2)c1C | x | -1% | x | -45% | -9% | 0%
CC1=NN(c2ccc(C)c(C)c2)C(=O)/C1=C/c1ccc2c(c1)n(C)c(=O)n2C | -2% | -7% | u | 7.1µM* | 7% | u
CC1=NN(c2ccccc2)C(=O)/C1=C/c1cccs1 | -5% | 1% | 14µM* | 32µM* | -20% | u
CCN(C(=O)C1CCCN(c2ncnc3onc(-c4ccc(F)cc4)c23)C1)c1ccccc1 (stereo not drawn) | 8%[46 µM] | -11% | x | -22%[59 µM] | x | x

High-throughput results: PubChem, National Center for Advancing Translational Sciences (NCATS)
